The entries are a selection whose mix differs from that of the whole data set. Some salts or complexes appear as unconnected parts, following the source record. Calls of active or inactive are those of the source.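 The calls were made as follows: active = B-score under library mean minus 4 SD, starting fluorescence ratio at most library mean plus 5 SD; inactive = the rest.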
What follows are molecules tested against Potassium channel subfamily K member 3 (Homo sapiens) (UniProt O14649) (assay: human KCNK3 channel inhibitors, primary screen, CHO cells, FluxOR thallium flux, B-score (AID 602410)). Settings: FluxOR fluorescence, at 10 µM.

The chains behind the UniProt entries cited, without tags or fusion partners.
UniProt O14649, whole entry: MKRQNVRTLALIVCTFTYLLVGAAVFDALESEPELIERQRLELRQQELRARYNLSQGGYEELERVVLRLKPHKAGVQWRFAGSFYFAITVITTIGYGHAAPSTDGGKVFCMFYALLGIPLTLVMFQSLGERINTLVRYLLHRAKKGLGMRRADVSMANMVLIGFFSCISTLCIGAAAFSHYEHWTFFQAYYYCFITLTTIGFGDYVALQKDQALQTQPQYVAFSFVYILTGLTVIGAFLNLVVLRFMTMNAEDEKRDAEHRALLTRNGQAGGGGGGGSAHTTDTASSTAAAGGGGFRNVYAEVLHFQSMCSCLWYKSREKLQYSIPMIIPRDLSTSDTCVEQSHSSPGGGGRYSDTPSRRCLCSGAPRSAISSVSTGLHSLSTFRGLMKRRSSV

| SMILES | outcome |
| --- | --- |
| Cc1ccccc1NP(C)(=O)Nc1ccccc1C | inactive |
| CP(=O)(Nc1ccc2c(c1)OCCO2)Oc1ccccc1 (centres undefined) | inactive |
| c1nnnn1CCn1cnnn1 | inactive |
| CCOP(C)(=S)SCC(=O)NC(C)(CC)C(=O)O (centres undefined) | inactive |
| O=P(Nc1nccs1)(c1ccccc1)c1ccccc1 | inactive |
| CC(C)C(=O)NC(Sc1ccccc1)C(Cl)(Cl)Cl (centres undefined) | inactive |
| CP(=O)(Nc1ccc(SC(F)(F)F)cc1)Oc1ccc(F)cc1 (centres undefined) | inactive |
| O=C(OC1CN2CCC1CC2)c1cccc(Cl)c1 (centres undefined) | inactive |
| Nc1ccc([As](=O)(O)c2ccc([N+](=O)[O-])cc2)cc1 | inactive |
| C(Cc1nn[nH]n1)Cc1nn[nH]n1 | inactive |
| Cc1c(C(c2ccc3c(c2)OCO3)c2c(C)n(C)n(-c3ccccc3)c2=O)c(=O)n(-c2ccccc2)n1C.O=[N+]([O-])c1cc([N+](=O)[O-])c(O)c([N+](=O)[O-])c1 | inactive |
| O=[N+]([O-])c1cc([N+](=O)[O-])c(NCC2CCS(=O)(=O)C2)c([N+](=O)[O-])c1 (centres undefined) | inactive |
| Cc1cc(-c2cccc3ccccc23)c(C)cn1.O=[N+]([O-])c1cc([N+](=O)[O-])c(O)c([N+](=O)[O-])c1 | inactive |
| O=[As](O)(c1ccccc1)c1ccc(O)cc1 | inactive |
| O=[N+]([O-])c1ncn(CCn2cnc([N+](=O)[O-])n2)n1 | inactive |
| O=[N+]([O-])c1ccc(OP2(=O)COCCO2)cc1 (centres undefined) | inactive |
| CC(=O)NC(SC(=S)N(C)C)C(Cl)(Cl)Cl (centres undefined) | inactive |
| O=[N+]([O-])c1ccc(O)c(/C=N/Nc2ccc([N+](=O)[O-])cc2[N+](=O)[O-])c1 | inactive |
| COc1ccc(NP(C)(=O)Oc2ccccc2OC)cc1 (centres undefined) | inactive |
| C[C@H]1OP(=O)(Oc2ccccc2)[C@H](O)[C@H](O)[C@H]1N=[N+]=[N-] (some centres undefined) | inactive |
| O=P(Nc1nc2ccccc2s1)(c1ccccc1)c1ccccc1 | inactive |
| CN(C)CCOC(=O)C(O)(c1ccccc1)C1CCCCC1 (centres undefined) | inactive |
| CN(C)C1(CNC(=O)c2ccc(Cl)c(S(N)(=O)=O)c2)CCCCC1 | inactive |

| SMILES | outcome |
| --- | --- |
| O=P(Nc1ccccn1)(c1ccc(Br)cc1)c1ccc(Br)cc1 | inactive |
| COc1ccc(N)c([N+](=O)[O-])c1[N+](=O)[O-] | inactive |
| COc1ccc(OP(C)(=O)Nc2cccc(Br)c2)cc1 (centres undefined) | inactive |
| CN(C)C(=O)Oc1noc2ccccc12 | inactive |
| O=[N+]([O-])c1cc([N+](=O)[O-])c(OC2CCCCC2O)c([N+](=O)[O-])c1 (centres undefined) | inactive |
| O=c1c2cc([N+](=O)[O-])ccc2[nH]c2c([N+](=O)[O-])cc([N+](=O)[O-])cc12 | inactive |
| CCCCCOc1ccc(NP(C)(=O)Oc2ccc(Cl)cc2Cl)cc1 (centres undefined) | inactive |
| Cc1ccccc1OP(=O)(Nc1ccccn1)Oc1ccccc1C | inactive |
| CC(NC(=O)COC(=O)C(O)(c1ccccc1)c1ccccc1)c1ccccc1 (centres undefined) | inactive |
| CP(=O)(Nc1ccccc1)Oc1ccc(F)cc1 (centres undefined) | inactive |
| CCC(=O)N1C2C3N(C(=O)CC)C1C1N(C(=O)CC)C(C(N1C(=O)CC)N3C(=O)CC)N2C(=O)CC | inactive |
| CCN(CC)CCCOC(=O)C(O)(c1ccccc1)C1CCCCC1 (centres undefined) | inactive |
| O=C(OC1CN2CCC1CC2)c1ccccc1 (centres undefined) | inactive |
| Cc1ccc(OP(=O)(Nc2ccccn2)Oc2ccc(C)cc2)cc1 | inactive |
| CC(=O)NC(SC(=S)N(CC(C)C)CC(C)C)C(Cl)(Cl)Cl (centres undefined) | inactive |
| COC(=O)c1cc2c(s1)N=C(c1ccccc1)N(C)P2(=O)N1CCOCC1 (centres undefined) | inactive |
| Cc1c([N+](=O)[O-])cc([N+](=O)[O-])c(Br)c1[N+](=O)[O-] | inactive |
| COc1ccc(OP(C)(=O)Nc2ccc(SC(F)(F)F)cc2)cc1 (centres undefined) | inactive |
| CCOC(=O)c1ccc(NP(C)(=O)Oc2ccc(F)cc2)cc1 (centres undefined) | inactive |
| O=P1(N(CCCl)CCCl)OCCC2CCCCN21 (centres undefined) | inactive |
| Cc1ccc(NP(=O)(Oc2cccc(C)c2)Oc2cccc(C)c2)nc1 | inactive |
| c1ccc(-c2nn[nH]n2)c(-c2nn[nH]n2)c1 | inactive |
| O=C(NC1CCS(=O)(=O)C1)NP(=S)(Oc1ccccc1)Oc1ccccc1 (centres undefined) | inactive |

| SMILES | outcome |
| --- | --- |
| CCNC(=S)/N=C(\N)N[N+](=O)[O-] | inactive |
| CC(=O)Nc1ccc(Oc2c([N+](=O)[O-])cc([N+](=O)[O-])cc2[N+](=O)[O-])cc1 | inactive |
| COc1ccc2c(c1O)-c1c(O)c(OC)cc3c1[C@H](C2)[N+](C)(C)CC3.O=[N+]([O-])c1cc([N+](=O)[O-])c([O-])c([N+](=O)[O-])c1[O-] | inactive |
| CC(=O)Nc1ccc([As](=O)(O)O)c(O)c1 | inactive |
| C[C@@H]1C=CCP(=O)(Oc2ccccc2)O1 (some centres undefined) | inactive |
| C[C@H]1OP(=O)(Oc2ccccc2)C[C@@H]2O[C@@H]21 (some centres undefined) | inactive |
| O=C(OCCN1CCN(CCOCc2ccccc2)CC1)C(O)(c1ccccc1)c1ccccc1 | inactive |
| Cc1ccccc1CN(C)C(=O)COC(=O)C(O)(c1ccccc1)c1ccccc1 | inactive |
| COC(=O)C1(C)COP(=O)(NCc2ccccc2)OC1 (centres undefined) | inactive |
| O=C(OC1CN2CCC1CC2)c1ccc([N+](=O)[O-])cc1 (centres undefined) | inactive |
| N#C/C(=C\c1ccc(N(CCBr)CCBr)cc1)C(N)=O | inactive |
| CC(=O)c1ccc(N2CC2c2ccncc2)cc1 (centres undefined) | inactive |
| CC(C)c1ccc(OP(C)(=O)Nc2ccc(SC(F)(F)F)cc2)cc1 (centres undefined) | inactive |
| CC(C)(C)C(=O)NC(Sc1ccccc1)C(Cl)(Cl)Cl (centres undefined) | inactive |
| CP(=O)(Nc1ccccc1F)Oc1ccccc1 (centres undefined) | inactive |
| CCc1cc(O)c([N+](=O)[O-])c(C)c1[N+](=O)[O-] | inactive |
| CCOc1ccc(C2=NCC(CBr)S2)cc1 (centres undefined) | inactive |
| O=P1(Nc2nc3ccc(Cl)cc3s2)COc2ccccc2O1 (centres undefined) | inactive |
| CCc1ccc(OP(C)(=O)O)cc1 | inactive |
| COc1ccccc1OP(C)(=O)Nc1ccc(C)cc1C (centres undefined) | inactive |
| CP(=O)(Nc1ccccn1)Oc1ccccc1 (centres undefined) | inactive |
| O=C(NC(Sc1ccncn1)C(Cl)(Cl)Cl)c1ccccc1 (centres undefined) | inactive |
| Oc1ccccc1CNc1ccccn1 | inactive |

| SMILES | outcome |
| --- | --- |
| O=[N+]([O-])c1cc([N+](=O)[O-])c(Nc2ccccn2)c([N+](=O)[O-])c1 | inactive |
| CC(C)CC(=O)NC(Sc1ccc(Cl)cc1)C(Cl)(Cl)Cl (centres undefined) | inactive |
| Nc1cc(N)c2nonc2c1[N+](=O)[O-] | inactive |
| Cc1c(NP(C)(=O)Oc2ccc(C(C)C)cc2)c(=O)n(-c2ccccc2)n1C (centres undefined) | inactive |
| CN(C)CCOC(=O)C(O)(c1ccccc1)C1CCCC1 (centres undefined) | inactive |
| Clc1ccc(Cl)c(NC2=NCC(CBr)S2)c1 (centres undefined) | inactive |
| CN1CCCC(OC(=O)C(c2ccccc2)c2ccccc2)C1 (centres undefined) | inactive |
| Cc1ccc(OP(=O)(Nc2nccs2)Oc2ccc(C)cc2)cc1 | inactive |
| COc1ccc(OP(C)(=O)Nc2ccccn2)cc1 (centres undefined) | inactive |
| COc1ccccc1OP(=O)(Nc1ccc(C)cn1)Oc1ccccc1OC | inactive |
| Cc1ccc(N/C(=N/P(=O)(N2CCOCC2)N2CCOCC2)N2CCOCC2)cc1 | inactive |
| COc1ccccc1OP(C)(=O)Nc1ccc(Br)cc1 (centres undefined) | inactive |
| CN(C(=O)Cc1ccc(Cl)c(Cl)c1)[C@H]1CCCC[C@H]1N1CCCC1 | inactive |
| NC(=O)c1cc([N+](=O)[O-])cc([N+](=O)[O-])c1N | inactive |
| CP(=O)(OCCOc1ccccc1)OCCOc1ccccc1 | inactive |
| CP(=O)(Nc1ccc(Cl)cc1Cl)Oc1ccccc1 (centres undefined) | inactive |
| CCCCCCCCCCCCCCCC1C[N+](C)(C)CCOP(C)(=O)O1 (centres undefined) | inactive |
| Nc1cccc2ccc([As](=O)(O)O)cc12 | inactive |
| CCN(N=Nc1nonc1N)c1nonc1N | inactive |
| COc1ccc(OP(C)(=O)Nc2ccccc2Br)cc1 (centres undefined) | inactive |
| CN(C(=O)Cc1ccc(Cl)c(Cl)c1)[C@H]1CCCC[C@@H]1N1CCCC1 | inactive |
| Cc1ccc(NP(=O)(Oc2ccccc2F)Oc2ccccc2F)nc1 | inactive |
| COc1ccccc1OP(C)(=O)Nc1ccc(C)c(C)c1 (centres undefined) | inactive |

| SMILES | outcome |
| --- | --- |
| CCOP(=O)(Nc1ccccc1)OCC | inactive |
| Cc1cc(SC(NC(=O)c2ccc(F)cc2)C(Cl)(Cl)Cl)ncn1 (centres undefined) | inactive |
| Cc1cc(C)cc(OP(C)(=O)Nc2cccc(C(F)(F)F)c2)c1 (centres undefined) | inactive |
| O=P(Nc1nc2ccc(Cl)cc2s1)(c1ccccc1)c1ccccc1 | inactive |
| O=C1C(O)=C([N+](=O)[O-])C(=O)C(O)=C1[N+](=O)[O-] | inactive |
| CCCC1OP(N)(=O)OCC1CC (centres undefined) | inactive |
| O=C(O)c1ccccc1[As](=O)(O)O | inactive |
| CC(=O)Nc1ccc([As](=O)(O)O)cc1 | inactive |
| O=C(O)CNc1ccc([As](=O)(O)O)cc1 | inactive |
| O=[N+]([O-])c1cccc(NC2=NCC(CBr)S2)c1 (centres undefined) | inactive |
| COC(=O)C1(C)COP(=O)(Nc2ccccc2)OC1 (centres undefined) | inactive |
| O=[N+]([O-])c1ncn(CCn2ncnc2[N+](=O)[O-])n1 | inactive |
| CC(C)(C)C(=O)NC(Sc1ccncn1)C(Cl)(Cl)Cl (centres undefined) | inactive |
| CP(=O)(OC12CC3CC(CC(C3)C1)C2)OC12CC3CC(CC(C3)C1)C2 | inactive |
| O=C(Nc1cc([As](=O)(O)O)ccc1O)c1ccccc1 | inactive |
| CCOC(=O)c1ccc(NP(C)(=O)Oc2ccc(Cl)cc2)cc1 (centres undefined) | inactive |
| O=P1(N(CCCl)CCCl)OCCCS1 (centres undefined) | inactive |
| Nc1ccc2c(ccc3cccnc32)n1.O=[N+]([O-])c1cc([N+](=O)[O-])c(O)c([N+](=O)[O-])c1 | inactive |
| CC1CCN(C(=O)Oc2c(Cl)cc(Cl)c3cccnc23)CC1 | inactive |
| CN(C)C(=O)OCCc1n(C)cc[n+]1C | inactive |
| CC(C)=N/N=C(\N)N[N+](=O)[O-] | inactive |
| CN(C)C(=O)c1c([N+](=O)[O-])cc([N+](=O)[O-])cc1[N+](=O)[O-] | inactive |

Source: PubChem BioAssay AID602410 (Johns Hopkins Ion Channel Center, 2012)
